# Literature values in patent US5502037A, “Pro-cytotoxic drug conjugates for anticancer therapy” (priority 1993, dated 1996).
# System: Yoshida ascites sarcoma
# Conditions: Brock, 1976, cited from earlier work
smiles,measurement,setting,value
NP(=O)(OCCC(=O)O)N(CCCl)CCCl (centres unmarked),In vivo activities: LD50,"lethal dose, rat",~ 800 mg/kg
same,D50 Index (LD50/CD50),"therapeutic index, Yoshida ascites sarcoma in rat",4
